Assay results: patent US7087623B2, “Thiazole and other heterocyclic ligands for mammalian dopamine, muscarinic and serotonin receptors and transporters, and methods of use thereof” (Sepracor Inc., priority 2001, dated 2006)

Sequences of proteins named here, by UniProt entry; tags and fusion partners are left off. Residues count along the entry.
UniProt P28335, 33-458: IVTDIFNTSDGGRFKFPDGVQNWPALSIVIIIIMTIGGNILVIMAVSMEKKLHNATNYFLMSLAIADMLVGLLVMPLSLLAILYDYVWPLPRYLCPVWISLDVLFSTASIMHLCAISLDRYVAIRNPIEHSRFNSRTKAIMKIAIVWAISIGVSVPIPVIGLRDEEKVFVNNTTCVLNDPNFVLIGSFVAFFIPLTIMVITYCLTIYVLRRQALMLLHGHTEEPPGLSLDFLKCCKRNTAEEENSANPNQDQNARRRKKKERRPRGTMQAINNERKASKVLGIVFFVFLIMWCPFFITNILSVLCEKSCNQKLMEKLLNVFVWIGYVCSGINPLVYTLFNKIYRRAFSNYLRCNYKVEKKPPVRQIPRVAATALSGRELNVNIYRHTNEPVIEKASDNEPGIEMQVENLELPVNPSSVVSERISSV

Molecular target: T1, human serotonin 5-HT2C receptor (Homo sapiens, UniProt P28335)
T1 construct: expressed in transfected cells; host or cells: CHO-K1
Assay: Radioligand binding assay, human 5-HT2C receptors ([3H]Mesulergine)
Settings: value given in assay description

CN1C[C@@H](NS(=O)(=O)N(C)C)C[C@@H]2c3cccc4c3c(cn4C)C[C@H]21 [[^3H]Mesulergine, Mesulergine, reference compound]
IC50: 0.74 nM
Ki: 0.39 nM
